What was measured:
[1] = General solubility of exemplary components; format: physicochemical; settings: 200 proof ethanol, filtered through 0.22 micrometer PTFE filter
Excerpt: The following table lists the relative solubility of exemplary components of a formulation. A number of different dyes are listed along with their solubility information taken from the various literature sources and tested experimentally (200 proof ethanol and filtered through a 0.22 micrometer PTFE filter).

[2] = cited from earlier work

O=S(=O)([O-])c1ccc(N=Nc2c(O)ccc3cc(S(=O)(=O)[O-])ccc23)cc1.[Na+].[Na+] [Yellow #6]
Yes: Alcohol Solubility (tested) [1] | Alcohol Solubility (Literature) [2] | Water Solubility [2]

Reference: patent US9492444B2, “Extruded extended release abuse deterrent pill” (Pharmaceutical Manufacturing Research Services, Inc., priority 2013, dated 2016)
